Test results from US12103919B2, “3-(5-oxy)-1-oxoisoindolin-2-yl)piperidine-2,6-dione derivatives and uses thereof” (NOVARTIS AG, priority 2021, dated 2024).

Amino acid sequences for entries named in this document (tags omitted).
UniProt O95785, whole entry: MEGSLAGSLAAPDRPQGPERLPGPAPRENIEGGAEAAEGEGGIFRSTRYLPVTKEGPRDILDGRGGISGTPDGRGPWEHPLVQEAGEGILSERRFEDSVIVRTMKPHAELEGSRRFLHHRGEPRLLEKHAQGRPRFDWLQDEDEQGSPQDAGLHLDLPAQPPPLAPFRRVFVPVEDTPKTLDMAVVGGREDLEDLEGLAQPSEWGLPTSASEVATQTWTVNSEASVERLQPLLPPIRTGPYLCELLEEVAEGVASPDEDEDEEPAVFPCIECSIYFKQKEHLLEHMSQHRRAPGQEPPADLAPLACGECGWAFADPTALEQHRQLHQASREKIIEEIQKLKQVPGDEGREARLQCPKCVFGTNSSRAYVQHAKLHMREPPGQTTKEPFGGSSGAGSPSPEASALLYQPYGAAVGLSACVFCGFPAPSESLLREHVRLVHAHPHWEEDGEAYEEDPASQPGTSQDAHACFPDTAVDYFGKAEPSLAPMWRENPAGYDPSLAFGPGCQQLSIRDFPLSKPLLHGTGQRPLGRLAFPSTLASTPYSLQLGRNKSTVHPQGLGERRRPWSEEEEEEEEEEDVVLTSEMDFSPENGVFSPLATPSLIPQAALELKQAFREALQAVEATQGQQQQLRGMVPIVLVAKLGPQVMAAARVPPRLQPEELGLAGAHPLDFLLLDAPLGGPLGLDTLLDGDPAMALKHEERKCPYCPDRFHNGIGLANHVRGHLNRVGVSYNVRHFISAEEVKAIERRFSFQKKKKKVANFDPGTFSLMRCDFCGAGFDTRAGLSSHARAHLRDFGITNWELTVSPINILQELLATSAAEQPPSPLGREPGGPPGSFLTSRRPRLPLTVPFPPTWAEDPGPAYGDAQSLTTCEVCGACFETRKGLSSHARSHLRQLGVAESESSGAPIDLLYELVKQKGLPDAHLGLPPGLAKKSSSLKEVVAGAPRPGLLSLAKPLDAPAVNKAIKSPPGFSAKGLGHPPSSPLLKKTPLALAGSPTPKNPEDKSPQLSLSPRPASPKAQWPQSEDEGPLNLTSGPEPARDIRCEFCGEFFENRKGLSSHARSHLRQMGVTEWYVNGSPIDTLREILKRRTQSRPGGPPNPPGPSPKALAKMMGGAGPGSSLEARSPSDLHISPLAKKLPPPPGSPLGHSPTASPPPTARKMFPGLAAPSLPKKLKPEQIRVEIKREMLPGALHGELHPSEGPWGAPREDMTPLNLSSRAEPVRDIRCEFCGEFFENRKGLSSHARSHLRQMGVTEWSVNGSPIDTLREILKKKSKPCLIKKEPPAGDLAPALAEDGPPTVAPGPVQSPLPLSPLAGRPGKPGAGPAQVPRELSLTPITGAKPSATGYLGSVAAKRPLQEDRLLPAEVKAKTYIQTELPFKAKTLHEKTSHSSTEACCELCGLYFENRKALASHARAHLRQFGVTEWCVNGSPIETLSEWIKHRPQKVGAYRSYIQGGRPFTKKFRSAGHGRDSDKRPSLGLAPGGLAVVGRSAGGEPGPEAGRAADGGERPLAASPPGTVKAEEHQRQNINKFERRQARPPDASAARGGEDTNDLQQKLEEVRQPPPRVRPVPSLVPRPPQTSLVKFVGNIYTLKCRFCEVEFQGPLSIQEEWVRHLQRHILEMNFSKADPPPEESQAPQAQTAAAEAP
UniProt Q96SW2, whole entry: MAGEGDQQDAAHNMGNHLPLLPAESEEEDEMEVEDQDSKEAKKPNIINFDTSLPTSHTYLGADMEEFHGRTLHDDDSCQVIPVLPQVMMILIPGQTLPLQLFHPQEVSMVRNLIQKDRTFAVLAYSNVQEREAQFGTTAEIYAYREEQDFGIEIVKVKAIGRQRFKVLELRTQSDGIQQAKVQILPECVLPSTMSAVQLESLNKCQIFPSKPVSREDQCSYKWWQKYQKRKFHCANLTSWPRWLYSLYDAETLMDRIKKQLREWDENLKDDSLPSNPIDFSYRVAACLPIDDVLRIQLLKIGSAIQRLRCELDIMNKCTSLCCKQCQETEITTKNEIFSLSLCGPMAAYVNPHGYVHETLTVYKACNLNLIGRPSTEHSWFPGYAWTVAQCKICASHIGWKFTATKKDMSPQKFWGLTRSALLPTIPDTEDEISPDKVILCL
UniProt Q16531, whole entry partner: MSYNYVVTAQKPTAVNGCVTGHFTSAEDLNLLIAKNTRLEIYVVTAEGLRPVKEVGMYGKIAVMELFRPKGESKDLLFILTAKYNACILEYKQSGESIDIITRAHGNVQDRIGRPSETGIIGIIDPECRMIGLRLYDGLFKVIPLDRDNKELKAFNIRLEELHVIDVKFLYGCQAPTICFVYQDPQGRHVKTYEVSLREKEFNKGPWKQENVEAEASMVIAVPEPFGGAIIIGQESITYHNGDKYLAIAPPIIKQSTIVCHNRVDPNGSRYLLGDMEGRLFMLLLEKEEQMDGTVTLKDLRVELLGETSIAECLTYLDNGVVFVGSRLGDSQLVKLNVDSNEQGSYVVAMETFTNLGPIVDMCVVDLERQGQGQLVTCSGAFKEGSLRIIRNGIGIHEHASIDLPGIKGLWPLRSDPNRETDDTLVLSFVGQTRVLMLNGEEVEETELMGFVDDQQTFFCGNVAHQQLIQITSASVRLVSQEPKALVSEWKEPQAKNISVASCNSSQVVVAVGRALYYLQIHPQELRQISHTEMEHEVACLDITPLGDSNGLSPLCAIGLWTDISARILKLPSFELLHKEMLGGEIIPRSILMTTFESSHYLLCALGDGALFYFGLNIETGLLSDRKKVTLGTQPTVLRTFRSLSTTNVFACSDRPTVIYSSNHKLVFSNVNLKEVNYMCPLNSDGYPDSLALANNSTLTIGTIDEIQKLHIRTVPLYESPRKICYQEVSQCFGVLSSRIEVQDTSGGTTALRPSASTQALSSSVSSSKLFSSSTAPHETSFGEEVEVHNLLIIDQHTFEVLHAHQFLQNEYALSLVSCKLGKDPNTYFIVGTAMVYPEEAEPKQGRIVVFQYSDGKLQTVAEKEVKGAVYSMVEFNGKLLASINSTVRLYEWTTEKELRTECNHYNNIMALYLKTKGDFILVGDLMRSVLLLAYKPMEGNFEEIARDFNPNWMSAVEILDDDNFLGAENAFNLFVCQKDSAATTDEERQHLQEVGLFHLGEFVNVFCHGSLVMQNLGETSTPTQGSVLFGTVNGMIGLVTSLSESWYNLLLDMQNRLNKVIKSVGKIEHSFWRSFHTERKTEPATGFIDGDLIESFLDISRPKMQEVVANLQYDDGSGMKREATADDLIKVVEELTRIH

Molecular target: WIZ (Homo sapiens, UniProt O95785+Q96SW2)
Test: Quantification of WIZ protein levels in HiBit tag fusion protein assay (293T cells)
Type: cell-based
Details: for WIZ Amax: DMSO-normalized, curve-fitted percentage of WIZ-HiBit remaining at 25 uM; for % degradation of WIZ (100 − Amax): at 25 uM; for AC50: read-out: WIZ AC50, WIZ HiBit assay in 293T cells, about 18 hours, 10-point 5-fold dilution, top 25 μM

Row | Structure (SMILES) | WIZ Amax [%] | % degradation of WIZ (100 − Amax) [%] | AC50 [nM]
1 | CCN1CCC(C)C(Oc2ccc3c(c2)CN(C2CCC(=O)NC2=O)C3=O)C1 (single isomer, unassigned) [35A] | 60.81 | 39.19 | 8.6
2 | CCN1CCC(C)C(Oc2ccc3c(c2)CN(C2CCC(=O)NC2=O)C3=O)C1 (single isomer, unassigned) [35B] | 67.54 | 32.46 | 6.1
3 | CCN1CCC(C)C(Oc2ccc3c(c2)CN(C2CCC(=O)NC2=O)C3=O)C1 (single isomer, unassigned) [35C] | 69.59 | 30.41 | 11
4 | CCN1CCC(C)C(Oc2ccc3c(c2)CN(C2CCC(=O)NC2=O)C3=O)C1 (single isomer, unassigned) [35D] | 62.63 | 37.37 | 6.3
5 | CCN1CC(C)CC(Oc2ccc3c(c2)CN(C2CCC(=O)NC2=O)C3=O)C1 (single isomer, unassigned) [45A] | 48.89 | 51.11 | 40
6 | CCN1CC(C)CC(Oc2ccc3c(c2)CN(C2CCC(=O)NC2=O)C3=O)C1 (single isomer, unassigned) [45B] | 67.92 | 32.08 | 44
7 | CCN1CC(C)CC(Oc2ccc3c(c2)CN(C2CCC(=O)NC2=O)C3=O)C1 (single isomer, unassigned) [45C] | 66.38 | 33.62 | 49
8 | CCN1CC(C)CC(Oc2ccc3c(c2)CN(C2CCC(=O)NC2=O)C3=O)C1 (single isomer, unassigned) [45D] | 48.09 | 51.91 | 51
9 | CCN1CCC(C)C(Oc2ccc3c(c2)CN(C2CCC(=O)NC2=O)C3=O)C1 (single isomer, unassigned) [46A] | 109.66 |  | > 25000
10 | CCN1CCC(C)C(Oc2ccc3c(c2)CN(C2CCC(=O)NC2=O)C3=O)C1 (single isomer, unassigned) [46B] | 110.99 |  | > 25000
11 | CCN1CCC(C)C(Oc2ccc3c(c2)CN(C2CCC(=O)NC2=O)C3=O)C1 (single isomer, unassigned) [46C] | 105.03 |  | > 25000
12 | CCN1CCC(C)C(Oc2ccc3c(c2)CN(C2CCC(=O)NC2=O)C3=O)C1 (single isomer, unassigned) [46D] | 110.99 |  | > 25000
